This assay concerns the target AktK (Homo sapiens, UniProt P31749). Description: Luciferase-coupled chemiluminescence kinase assay (ATP consumption). Format: biochemical. The conditions noted are these: Table 1; class symbols per key; read-out: AKT-1 IC50. The method, then: One measure of inhibition is Ki. […] The Ki for a compound is determined from the IC50 based on three assumptions. First, only one compound molecule binds to the enzyme and there is no cooperativity. […] Third, the enzymatic rate of the enzyme-inhibitor complex is zero. The rate data (i.e. compound concentration) are fitted to the equation: […]
Luciferase-Coupled Chemiluminescence Assay Protocol
Kinase activity is measured as the percent of ATP consumed following the kinase reaction using luciferase-luciferin-coupled chemiluminescence. Reactions were conducted in 384-well white, medium binding microtiter plates (Greiner). Kinase reactions were initiated by combining test compounds, ATP and kinase in a 20 uL volume. The reaction mixture was incubated at ambient temperature for 3 hrs. For p70S6K and/or AktK, 2.5-5 nM of the enzyme was pre-incubated with compound in 20 mM Tris pH 7.5, 10 mM MgCl2, 0.03% TX-100, and 1 mM DTT for 30 minutes at room temperature. Following the kinase reaction, a 20 μL aliquot of luciferase-luciferin mix was added and the chemiluminescence signal measured using a Victor^2 plate reader (Perkin Elmer). […] Total ATP consumption was limited to 25-60% and the IC50 values correlate well with those determined by radiometric assays.

Amino acid sequences for entries named in this document (tags omitted). A change or cut given only in a name is not applied to a line headed by its entry.
UniProt P31749: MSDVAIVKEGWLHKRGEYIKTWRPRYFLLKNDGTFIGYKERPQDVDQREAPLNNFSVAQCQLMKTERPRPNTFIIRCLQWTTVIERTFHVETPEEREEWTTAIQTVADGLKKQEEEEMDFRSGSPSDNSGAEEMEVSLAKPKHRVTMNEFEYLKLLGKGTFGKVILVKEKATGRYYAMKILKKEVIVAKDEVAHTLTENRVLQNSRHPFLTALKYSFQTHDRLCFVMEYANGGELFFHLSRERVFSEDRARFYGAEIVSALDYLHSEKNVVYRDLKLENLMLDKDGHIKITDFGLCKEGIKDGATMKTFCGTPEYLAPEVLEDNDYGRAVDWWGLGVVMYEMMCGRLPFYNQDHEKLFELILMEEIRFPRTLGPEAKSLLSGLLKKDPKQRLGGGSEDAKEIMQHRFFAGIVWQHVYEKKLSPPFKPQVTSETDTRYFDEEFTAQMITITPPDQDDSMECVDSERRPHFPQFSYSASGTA

Data on one substance can be found in US8076338B2, “Kinase modulators and methods of use” (Exelixis, Inc., priority 2004, dated 2011).

By IC50 is commonly meant the concentration that gives 50% inhibition.

For “3-[4-(3-Bromo-1H-pyrazolo[3,4-d]pyrimidin-4-yl)piperazin-1-yl]-4-methyl-N-phenyl-5-[(2-pyrrolidin-1-ylethyl)amino]benzamide [Example 45]”, the IC50 was 100 to 1000 nM.
